Reference: PubChem BioAssay AID504904 (The Scripps Research Institute Molecular Screening Center, 2011)
Only a part is listed here, and it is no random draw. Calls of active or inactive are those of the source. Rule as the data show it: active = activation above about 18%; inactive = the rest.

Chains of the proteins cited; added tags and fusions are not shown.
UniProt P35372, whole entry, looked up: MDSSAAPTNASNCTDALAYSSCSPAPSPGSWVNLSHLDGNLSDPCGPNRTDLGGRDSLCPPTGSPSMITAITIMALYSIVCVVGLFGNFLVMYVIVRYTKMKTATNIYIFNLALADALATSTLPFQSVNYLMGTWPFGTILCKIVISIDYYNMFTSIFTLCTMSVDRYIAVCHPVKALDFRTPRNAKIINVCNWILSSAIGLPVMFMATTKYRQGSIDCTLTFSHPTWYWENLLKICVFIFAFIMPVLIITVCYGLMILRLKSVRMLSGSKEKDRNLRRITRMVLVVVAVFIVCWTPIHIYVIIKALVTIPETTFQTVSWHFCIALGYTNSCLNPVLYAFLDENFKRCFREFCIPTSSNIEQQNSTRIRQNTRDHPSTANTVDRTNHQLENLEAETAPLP
UniProt P41143, whole entry, looked up: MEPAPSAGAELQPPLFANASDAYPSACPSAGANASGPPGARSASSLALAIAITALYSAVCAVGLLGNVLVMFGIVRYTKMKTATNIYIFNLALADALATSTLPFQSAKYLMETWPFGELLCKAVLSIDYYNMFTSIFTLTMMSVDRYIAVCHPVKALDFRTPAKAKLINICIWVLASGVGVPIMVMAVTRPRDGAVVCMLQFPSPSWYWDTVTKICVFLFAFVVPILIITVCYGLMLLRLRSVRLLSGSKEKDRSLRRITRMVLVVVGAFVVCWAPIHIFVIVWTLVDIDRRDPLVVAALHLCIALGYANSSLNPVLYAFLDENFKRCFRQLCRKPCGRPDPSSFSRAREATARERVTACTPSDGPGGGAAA

The molecules below were run against Mu-type opioid receptor (Homo sapiens) + Delta-type opioid receptor (Homo sapiens) (UniProt P35372+P41143) (assay: agonists of MOR-DOR heterodimerization, confirmation, cell-based, luminescence (AID 504904;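 also: 0% = vehicle-treated cells and 100% = reference agonist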)). Settings: cells, luminescence complementation, at 9.3 µM, stronger effect = higher value.

Q: Which activation does the source give for CN1CN(c2ccccc2)C2(CCN(CCCSc3ccccc3NC(=O)/C=C/c3ccccc3)CC2)C1=O here?
A: The activation was inactive: 11.5%.

Q: Which activation does the source give for O=[N+]([O-])c1cc(Oc2ccc([N+](=O)[O-])cc2C(F)(F)F)cc([N+](=O)[O-])c1 here?
A: Its activation is active: 33.3%.

Q: With Cc1ccc(C)c(CN2CCC(n3nnc4cc(F)ccc43)CC2)c1 as the molecule, how does the activation read?
A: The activation was active: 65.2%.

Q: For CCn1c(N)[n+](CC(=O)Nc2ccc(SC(F)F)cc2)c2ccccc21, which activation is on record?
A: Its activation is active: 75%.
